Read-outs that look alike come from different tables or passages of the source.
What was measured:
[1] = biological target: cloned human δ opioid receptor expressed in CHO cells (Homo sapiens, UniProt P41143); assay: [35S]GTPγS binding assay, inhibition of DPDPE-stimulated binding; format: biochemical
[2] = biological target: cloned human μ opioid receptor expressed in CHO cells (Homo sapiens, UniProt P35372); assay: [35S]GTPγS binding assay, inhibition of DAMGO-stimulated binding; format: biochemical

By UniProt entry, the sequences of proteins in these tests, tags left out.
UniProt P35372, whole entry: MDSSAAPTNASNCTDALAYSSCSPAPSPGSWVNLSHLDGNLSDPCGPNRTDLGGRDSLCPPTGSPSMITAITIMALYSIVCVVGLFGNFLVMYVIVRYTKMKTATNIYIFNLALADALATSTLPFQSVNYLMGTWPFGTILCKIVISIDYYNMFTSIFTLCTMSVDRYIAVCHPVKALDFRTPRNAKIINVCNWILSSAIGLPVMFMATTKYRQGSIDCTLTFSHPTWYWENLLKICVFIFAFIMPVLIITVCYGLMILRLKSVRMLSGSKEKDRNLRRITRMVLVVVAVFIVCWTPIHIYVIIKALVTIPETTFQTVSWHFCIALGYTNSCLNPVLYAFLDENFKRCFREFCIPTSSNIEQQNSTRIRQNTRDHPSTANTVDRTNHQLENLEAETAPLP

Row | SMILES | Kb ([1]; δ, DPDPE Ke) [nM] | Kb [2] [nM] | Kb [1] [nM]
1 | CC(C)[C@@H](CN1CC[C@@](C)(c2cccc(O)c2)[C@@H](C)C1)NC(=O)[C@H]1Cc2ccc(O)cc2C[S+]1[O-] (single isomer, unassigned) [Compound 10a] | 208 ± 55 |  | 
2 | CC(C)[C@@H](CN1CC[C@@](C)(c2cccc(O)c2)[C@@H](C)C1)NC(=O)[C@H]1Cc2ccc(O)cc2C[S+]1[O-] (single isomer, unassigned) [Compound 10b] | 61 ± 11 |  | 
3 | CC(C)[C@@H](CN1CC[C@@](C)(c2cccc(O)c2)[C@@H](C)C1)NC(=O)c1ccc2cc(O)ccc2c1 [Compound 6] |  | 2.53 ± 0.34 | 219 ± 41
4 | CC(C)[C@@H](CN1CC[C@@](C)(c2cccc(O)c2)[C@@H](C)C1)NC(=O)[C@@H]1CCc2cc(O)ccc2C1 [Compound 7a, 6-Hydroxy-1,2,3,4-tetrahydro-naphthalene-2(+)-carboxylic acid-{1-[4-(3-hydroxyphenyl)-(3R,4R)-trans-dimethyl-piperidinylmethyl]-(2S)-methylpropyl}amide] | 44.8 ± 7.7 |  | 
5 | CC(C)[C@@H](CN1CC[C@@](C)(c2cccc(O)c2)[C@@H](C)C1)NC(=O)[C@H]1CCc2cc(O)ccc2C1 [Compound 7b, 6-Hydroxy-1,2,3,4-tetrahydro-naphthalene-2(-)-carboxylic acid-{1-[4-(3-hydroxyphenyl)-(3R,4R)-trans-dimethyl-piperidinylmethyl]-(2S)-methylpropyl}amide] | 205 ± 59 |  | 
6 | CC(C)[C@@H](CN1CC[C@@](C)(c2cccc(O)c2)[C@@H](C)C1)NC(=O)[C@H]1Cc2ccc(O)cc2CO1 [Compound 8a] | 197 ± 64 |  | 
7 | CC(C)[C@@H](CN1CC[C@@](C)(c2cccc(O)c2)[C@@H](C)C1)NC(=O)[C@@H]1Cc2ccc(O)cc2CO1 [Compound 8b, 7-Hydroxy-3,4-dihydro-1H-isochromene-3-carboxylic acid-{1-[4-(3-hydroxyphenyl)-(3R,4R)-trans-dimethyl-piperidinylmethyl]-(2S)-methylpropyl}amide] | 134 ± 26 |  | 
8 | CC(C)[C@@H](CN1CC[C@@](C)(c2cccc(O)c2)[C@@H](C)C1)NC(=O)[C@H]1Cc2ccc(O)cc2CS1 [Compound 9a, 7-Hydroxyisothiochroman-3(+)-carboxylic acid-{1-[4-(3-hydroxyphenyl)-(3R,4R)-trans-dimethyl-piperidinylmethyl]-(2S)-methylpropyl}amide] | 395 ± 122 |  | 
9 | CC(C)[C@@H](CN1CC[C@@](C)(c2cccc(O)c2)[C@@H](C)C1)NC(=O)[C@@H]1Cc2ccc(O)cc2CS1 [Compound 9b, 7-Hydroxyisothiochroman-3(-)-carboxylic acid-{1-[4-(3-hydroxyphenyl)-(3R,4R)-trans-dimethyl-piperidinylmethyl]-(2S)-methylpropyl}amide] |  | 13.4 ± 2.9 | 182 ± 48

— paper PMC2912403 (Journal of medicinal chemistry, 2010)
